# According to US9045393B2, “Derivatives of 3.5-seco-4-norcholestane and use thereof” (TROPHOS, priority 2004, dated 2015):
# Assay: Toxicological study in mice
# Assay type: in vivo
# Conditions: intra-peritoneal route, 30 mg/kg/day, daily administration up to 14 days
substance,measurement,value
"3,5-seco-4-nor-cholestan-5-one oxime-3-methyl alcohol [Compound 4]",toxicity,did not show any significant toxicity
